Tested on: B16.F10 mouse melanoma tumor model
Assay: Example 1: CRLX101 with NLG-919 analog or INCB-024360 analog, tumor growth inhibition and delay
Format: in vivo
Settings: same dosing; mean tumor volume vs vehicle when the control group reached the tumor volume endpoint

Nc1nonc1C(=NO)Nc1ccc(F)c(Cl)c1 [INCB-024360 analog]
TGI vs. Control (%): 6%

— patent US20200093932A1, “TREATMENT OF CANCER” (BlueLink Pharmaceuticals, Inc., priority 2016, published 2020)
